Experiments:
[1] = In vivo PK in mice, IV and PO
[2] = system: human platelet-rich plasma; experiment: Platelet aggregation assay; assay type: cell-based

SMILES: CCCCNc1ncc(C(=O)NCc2ccc(-n3ccnc3)cc2)c(N[C@H]2CC[C@H](O)CC2)n1 [Compound 23]
- Volume of distribution relative to normal volume of total body water (0.70 L/kg) [1]: 2 fold
- Inhibition of collagen-induced platelet aggregation (in words) [2]: potently inhibits
- inhibition at 3 µM ([2]; Homo sapiens, Platelet, read-out: Inhibition of platelet aggregation): > 25%
